Reference: patent US20020035061A1, “COMPOSITIONS AND METHODS FOR TREATING INFECTIONS USING CATIONIC PEPTIDES ALONE OR IN COMBINATION WITH ANTIBIOTICS” (priority 1996, published 2002)
Values joined by “and” are separate entries in the source; they are usually repeats but may differ in a detail not shown here. Identical values can stand only once.

Test: Single dose toxicity, intraperitoneal injection, formulations
Type: in vivo, outbred ICR mice
Method: The single dose toxicity of a cationic peptide and antibiotic agent combination is examined in outbred ICR mice. Intraperitoneal injection of the combination in isotonic saline is carried out at increasing dose levels. The survival of the animals is monitored for 7 days. The number of animals surviving at each dose level is used to determine the maximum tolerated dose (MTD). In addition, the MTD can be determined after administration of the peptide and agent by different routes, at different time points, and in different formulations.
The single dose toxicity of MBI 10CN and MBI 11CN is examined in outbred ICR mice (Table 32).
The single dose toxicity of MBI 10CN and MBI 11CN in different formulations is also examined in outbred ICR mice (Table 36). Intraperitoneal injection (groups of 2 mice) of MBI 10CN in formulation D show no toxicity up to 29 mg/kg and under the same conditions MBI 11CN show no toxicity up to 40 mg/kg.

Q: For ILKKWPWWPWRRK [MBI 11CN], which MTD (Intraperitoneal injection, single dose, outbred ICR mice (Table 32)) is on record?
A: >40 mg/kg

Q: What about the MTD (ip, formulation D, ICR mice) of the same sequence?
A: 40 mg/kg and >40 mg/kg

Q: And the “dose showing no toxicity” value (ip, formulation D, groups of 2 mice)?
A: up to 40 mg/kg
